In general, IC50 refers to the midpoint of a concentration-inhibition curve.

Sequences of proteins named here, by UniProt entry; tags and fusion partners are left off. A change or cut given only in a name is not applied to a line headed by its entry.
UniProt P08253: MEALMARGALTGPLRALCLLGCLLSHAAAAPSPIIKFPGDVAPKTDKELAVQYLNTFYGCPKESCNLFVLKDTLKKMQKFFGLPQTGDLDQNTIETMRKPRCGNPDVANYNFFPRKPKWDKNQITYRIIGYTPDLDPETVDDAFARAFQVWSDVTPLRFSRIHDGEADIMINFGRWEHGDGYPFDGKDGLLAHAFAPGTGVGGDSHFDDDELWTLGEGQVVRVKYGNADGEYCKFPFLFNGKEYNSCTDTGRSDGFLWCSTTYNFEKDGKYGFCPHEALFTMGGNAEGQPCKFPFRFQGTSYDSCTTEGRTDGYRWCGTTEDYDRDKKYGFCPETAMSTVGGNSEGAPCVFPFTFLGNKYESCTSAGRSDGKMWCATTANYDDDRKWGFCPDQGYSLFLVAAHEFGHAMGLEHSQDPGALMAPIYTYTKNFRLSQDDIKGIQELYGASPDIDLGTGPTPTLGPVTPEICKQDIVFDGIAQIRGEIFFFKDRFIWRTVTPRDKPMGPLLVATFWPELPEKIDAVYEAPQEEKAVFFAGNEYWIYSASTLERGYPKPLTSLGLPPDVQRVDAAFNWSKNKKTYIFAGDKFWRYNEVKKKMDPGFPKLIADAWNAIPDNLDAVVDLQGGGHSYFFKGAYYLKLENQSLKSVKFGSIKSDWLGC

These results are taken from BindingDB's records for patent US20240050571 (Loyola University Of Chicago, 2024).

For one test, the target named is T1, Interstitial collagenase (Homo sapiens, UniProt P03956).
T1 sequence (P03956 whole entry): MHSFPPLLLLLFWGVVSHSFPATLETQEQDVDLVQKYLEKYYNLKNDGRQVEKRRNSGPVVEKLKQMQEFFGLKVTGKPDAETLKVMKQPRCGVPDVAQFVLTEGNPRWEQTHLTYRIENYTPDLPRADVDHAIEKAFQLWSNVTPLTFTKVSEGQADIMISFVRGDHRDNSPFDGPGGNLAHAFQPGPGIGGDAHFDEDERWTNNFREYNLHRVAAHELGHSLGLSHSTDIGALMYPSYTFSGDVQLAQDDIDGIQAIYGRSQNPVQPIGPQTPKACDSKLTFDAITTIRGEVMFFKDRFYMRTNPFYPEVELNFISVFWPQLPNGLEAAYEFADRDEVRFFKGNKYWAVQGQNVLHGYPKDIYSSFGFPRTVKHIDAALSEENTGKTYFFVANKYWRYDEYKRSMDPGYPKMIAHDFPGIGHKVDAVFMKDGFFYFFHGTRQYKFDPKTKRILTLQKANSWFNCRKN
Put plainly: Assay for Inhibition of MMP.

The target in test [1] is 72 kDa type IV collagenase (Homo sapiens, UniProt P08253). Put plainly: Assay for Inhibition of MMP.

Take `C#CCN1CCC(C(=O)NOC2CCCCO2)(S(=O)(=O)c2ccc(Oc3ccc(OC(F)(F)F)cc3)cc2)CC1` (configuration not stated) [US20240050571, Compound 9]: the IC50 against Interstitial collagenase stood at 860 nM; in test [1], 0.24 nM.
